# Test results: PubChem BioAssay AID624263 (National Center for Advancing Translational Sciences (NCATS), 2012)
# The list shows a part of the results, in another mix than the full data. The source made the active and inactive calls. Calls come from the whole dose curve; as a rule, active = well fitted activation curve with a large enough effect; inconclusive = small, poorly fitted or top-dose-only effect; inactive = flat fitted curve, though single readings scatter; cell line not stated here.
# Experiment: A Quantitative High throughput Screen to Identify Chemical Modulators of PINK1 Expression; note: % of control where 0% means no effect; nearly all actives have a fitted effect of over 65% in size
# Settings: PINK1 immunofluorescence, high-content cytometry, 24 h; at 76.6 µM (top of the series) unless noted
row,Compound,activation (PINK1 increase)
1,CCOC(=O)C(CC)C1=NC(C)(C)Cc2ccccc21.O=[N+]([O-])c1cc([N+](=O)[O-])c(O)c([N+](=O)[O-])c1 (stereo not given),inactive: 1.11%
2,CN(C)C1(CNC(=O)c2cccc(C#N)c2)CCCCC1,inactive: 4.59%
3,O=C(NCC1(N2CCOCC2)CCCCC1)c1ccccc1,inactive: 0.638%
4,Cc1cc(N(CCCl)CCCl)ccc1C=O,inactive: -5.04%
5,O=c1[nH]c2ccccc2n1C1CCN(C(c2ccccc2)c2nnnn2C2CCCC2)CC1 (stereo not given),inactive: -0.425%
6,CCCN1CCC(Nc2cc(OC)cc(OC)c2)CC1,inactive: 2.15%
7,c1ccc(CN2CCC(Nc3ccccc3)CC2)cc1,inactive: -0.91%
8,CC(C)(C)n1nnnc1C(c1cccc2ccccc12)N1CCC(n2c(=O)[nH]c3ccccc32)CC1 (stereo not given),inactive: 0.371%
9,CCC(c1nnnn1C1CCCCC1)N1CCC(n2c(=O)[nH]c3ccccc32)CC1 (stereo not given),inactive: 2.86%
10,CN(C)C1(CNC(=O)c2ccc(C(C)(C)C)cc2)CCCCC1,inactive: 0.763%
11,COc1cccc(C(c2nnnn2C2CCCCC2)N2CCC(n3c(=O)[nH]c4ccccc43)CC2)c1OC (stereo not given),inactive: 3.72%
12,CC(=O)N(c1ccccc1)C1CCNCC1,inactive: 0.745%
13,COc1cc(OC)cc(C(=O)NCC2(N3CCCCC3)CCCCC2)c1,inactive: 0.245%
14,O=c1[nH]c2ccccc2n1C1CCN(C(c2ccnc3ccccc23)c2nnnn2C2CCCCC2)CC1 (stereo not given),inactive: 0.609%
15,Cc1ccc(C(=O)NCC2(N3CCCCC3)CCCCC2)o1,inactive: 1.29%
16,Cc1ccc(NC2(C#N)CCN(Cc3ccccc3)CC2)cc1,inactive: -1%
17,CCN1CCC(Nc2cccc(F)c2)CC1,inactive: -0.0038%
18,COc1ccc(C(c2nnnn2C2CCCCC2)N2CCC(n3c(=O)[nH]c4ccccc43)CC2)cc1 (stereo not given),inactive: 0.941%
19,CC(C)(C)n1nnnc1C(c1ccnc2ccccc12)N1CCC(n2c(=O)[nH]c3ccccc32)CC1 (stereo not given),inactive: -0.27%
20,Cc1ccccc1NC1(C#N)CCN(Cc2ccccc2)CC1,inactive: 5.48%

row,Compound,activation (PINK1 increase)
1,Cc1ccccc1C(=O)NCC1(N(C)C)CCCCC1,inactive: 1.2%
2,CN(C)c1ccc(C(=O)NCC2(N3CCCCC3)CCCCC2)cc1,inactive: 2.45%
3,Cn1c(=O)[nH]cc(N(CCCl)CCCl)c1=O,inactive: -0.702%
4,O=C(NCC1(N2CCCCC2)CCCCC1)c1ccco1,inactive: 0.5%
5,CC(C)(C)c1ccc(C(=O)NCC2(N3CCOCC3)CCCCC2)cc1,inactive: 1.03%
6,CN1CCC(Nc2ccc(F)c(Cl)c2)CC1,inactive: -1.63%
7,CCOc1ncccc1C(=O)NCC1(N2CCOCC2)CCCCC1,inactive: 0.163%
8,O=C(O)C1(Nc2ccccc2)CCN(Cc2ccccc2)CC1,inactive: -0.991%
9,NN(c1ccccc1)C1CCN(CCc2ccccc2)CC1,inactive: 2.58%
10,ClCCN(CCCl)c1ccc(C=C2C=CC=C2)cc1,inactive: -0.84%
11,CC(C)(C)OC(=O)N1CCC(Nc2ccccc2)CC1,inactive: 3.59%
12,O=c1[nH]c2ccccc2n1C1CCN(C(c2cc3ccccc3o2)c2nnnn2C2CCCC2)CC1 (stereo not given),inactive: -0.848%
13,CCCOc1ccc(C(=O)NCC2(N(C)C)CCCCC2)cc1,inactive: -2%
14,ClCCN(CCCl)c1ccccc1,inactive: -0.291%
15,COc1cc(OC)cc(C(=O)NCC2(N3CCOCC3)CCCCC2)c1,inactive: -0.522%
16,COc1cccc(C(c2nnnn2C2CCCC2)N2CCC(n3c(=O)[nH]c4ccccc43)CC2)c1OC (stereo not given),inactive: -0.107%
17,COc1cc(C(=O)NCC2(N3CCOCC3)CCCCC2)cc(OC)c1OC,inactive: 0.707%
18,COc1cccc(C(=O)N(c2cc(C)cc(C)c2)C2CCN(C(=O)OC(C)(C)C)CC2)c1,inactive: 5.97%
19,CCC(CO)(C(=O)OC1CN2CCC1CC2)c1ccccc1 (stereo not given),inactive: -0.37%
20,CN1CCC(Nc2ccc(Cl)cc2)CC1,inactive: -0.429%
